According to US4689321A, “Oxo propenyl nucleosides and nucleoside related analogs” (The Research Foundation of State University of New York, priority 1984, dated 1987):

Tested on: murine leukemia
Assay: murine leukemia model, ascites cells implanted i.p. in mice (Table I)
Assay type: in vivo, murine (CFD1+ mice)
Details: for Effect MST % T/C: >125 considered significant
[1] = 32 mg/kg/inj IP, schedule qd 1 5
[2] = 64 mg/kg/inj IP, schedule qd 1 5

## Cc1cn([C@H]2C[C@H](O)[C@@H](CO)O2)c(=O)n(C=CC=O)c1=O [XX-336, 3-(thymidin-3-yl)-prop-2-enal]
2 mg/kg/inj IP, schedule qd 1 5
  Survivors d.5: 4/4
2 mg/kg/inj IP, schedule qd 1 5, control +2.7
  AWC d.5: -0.3 gm
4 mg/kg/inj IP, schedule qd 1 5
  Survivors d.5: 4/4
4 mg/kg/inj IP, schedule qd 1 5, control +2.7
  AWC d.5: +0.6 gm
8 mg/kg/inj IP, schedule d.1, control +2.7
  AWC d.5: +2.1 gm
8 mg/kg/inj IP, schedule qd 1 5, control +2.7
  AWC d.5: +0.4 gm
16 mg/kg/inj IP, schedule d.1, control +2.7
  AWC d.5: +0.5 gm
16 mg/kg/inj IP, schedule qd 1 5, control +2.7
  AWC d.5: +0.8 gm
32 mg/kg/inj IP, schedule d.1, control +2.7
  AWC d.5: +0.5 gm
[1]
  AWC d.5: TOX
  MST (median survival time): TOX
  Effect MST % T/C: TOX
64 mg/kg/inj IP, schedule d.1
  AWC d.5: TOX
  MST (median survival time): TOX
  Effect MST % T/C: TOX
[2]
  AWC d.5: TOX
  MST (median survival time): TOX
  Effect MST % T/C: TOX
128 mg/kg/inj IP, schedule d.1
  AWC d.5: TOX
  MST (median survival time): TOX
  Effect MST % T/C: TOX
256 mg/kg/inj IP, schedule d.1
  AWC d.5: TOX
  MST (median survival time): TOX
  Effect MST % T/C: TOX
